Tests used:
[1] = rat, in vivo, 25 mg/kg
Protocol: The experimental results described below were obtained on the basis of a study carried out in healthy human beings and in healthy Wistar rats weighing approximately 250 grams.
An acclimation period was observed before beginning the experiments.
The rats received an administration per os of a volume of 5 ml of a solution of active product.
With regard to taking the blood samples from the rats and from the human beings, the blood was collected in tubes internally coated with EDTA and was then centrifuged at 3000 rpm (revolutions per minute) at ambient temperature for 45 min, and then for 15 min at a temperature of 4° C. The plasma was then collected and stored at −70° C. before analysis. […]
(§1) The free (+)-catechin was extracted from the plasma with a solution of phosphoric acid, EDTA and ascorbic acid and was then purified by SPE (solid phase extraction); in particular, it is an Oasis™ HLB extraction which is analyzed by LC-MS/MS. The quantification was carried out according to a standard calibration procedure with (+/−)-catechin-2,3,4-^13C3 as internal standard (SI).
The procedure is identical with regard to the extraction and the quantification of free quercetin or ECGC in the blood. […]

[2] = in vivo, po
Protocol: With regard to taking the blood samples from the rats and from the human beings, the blood was collected in tubes internally coated with EDTA and was then centrifuged at 3000 rpm (revolutions per minute) at ambient temperature for 45 min, and then for 15 min at a temperature of 4° C. The plasma was then collected and stored at −70° C. before analysis.
The analytical technique (LC-MS/MS for Liquid Chromatography coupled to tandem Mass Spectrometry) for measuring the active substance in the blood was based on the method described by Mata-Bilbao et al., published in 2007 in the Journal of Agricultural and Food Chemistry, volume 55, page 8857.
as §1
This complex salt is administered to a group A of 5 healthy volunteers.
This ct parameter makes it possible to calculate, from the data of table 1, the bioavailability of the (+)-catechin expressed in ng h/ml.

monomeric (+)-catechin hydrochlorolysinate [[C:Lys:HCl/1:1:1]]
ct value estimated from the curve of ct as a function of the (+)-catechin:lysine molar equivalence ratio (FIG. 5) [1]: 127 000 ng min/ml
ct, value reported on the curve in FIG. 5 [1]: 127 k ng min/ml
T (max) [2]: 30 min
c (max) [2]: 525 ng/mL
increase in speed of passage into the blood, T (max), compared with pure (+)-catechin [2]: +166%
